Sequences of proteins named here, by UniProt entry; tags and fusion partners are left off. A change or cut given only in a name is not applied to a line headed by its entry.
UniProt Q03181, whole entry: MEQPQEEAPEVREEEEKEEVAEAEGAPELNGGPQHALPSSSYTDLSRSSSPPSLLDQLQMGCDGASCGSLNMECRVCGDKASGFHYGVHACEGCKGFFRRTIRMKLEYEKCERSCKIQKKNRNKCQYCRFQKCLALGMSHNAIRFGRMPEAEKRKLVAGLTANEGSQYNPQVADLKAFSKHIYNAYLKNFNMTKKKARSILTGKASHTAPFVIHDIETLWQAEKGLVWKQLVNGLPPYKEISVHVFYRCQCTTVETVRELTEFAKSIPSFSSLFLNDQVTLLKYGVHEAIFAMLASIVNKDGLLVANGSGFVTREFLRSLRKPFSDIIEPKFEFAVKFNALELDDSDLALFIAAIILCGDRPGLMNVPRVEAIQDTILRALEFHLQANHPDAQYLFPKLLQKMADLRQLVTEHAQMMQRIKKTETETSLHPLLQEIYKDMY

In patent US10035819B2, “PPAR agonists and methods of use thereof” (The Salk Institute for Biological Studies, priority 2014, dated 2018):

Target: PPARδ (Homo sapiens, UniProt Q03181)
Assay: Nuclear Hormone Receptor (NHR) protein interaction assay (PathHunter), agonist format
Format: cell-based
Details: read-out: NHR protein interaction assay, EC50 (nM) for PPARδ, PathHunter NHR cell line

## CC(C)N(Cc1ccccc1OCCOCCC(=O)O)C(=O)c1ccc(-c2ccco2)cc1
  EC50: 392 nM

## CC(C)N(Cc1ccccc1OCCCCC(=O)O)C(=O)c1ccc(-c2ccco2)cc1
  EC50: 113 nM
